Biological target: T1, rat GLP-1 receptor (Rattus norvegicus, UniProt P32301)
T1 construct: expressed in transfected cells; host or cells: CHO cells
T1 sequence (P32301 22-463): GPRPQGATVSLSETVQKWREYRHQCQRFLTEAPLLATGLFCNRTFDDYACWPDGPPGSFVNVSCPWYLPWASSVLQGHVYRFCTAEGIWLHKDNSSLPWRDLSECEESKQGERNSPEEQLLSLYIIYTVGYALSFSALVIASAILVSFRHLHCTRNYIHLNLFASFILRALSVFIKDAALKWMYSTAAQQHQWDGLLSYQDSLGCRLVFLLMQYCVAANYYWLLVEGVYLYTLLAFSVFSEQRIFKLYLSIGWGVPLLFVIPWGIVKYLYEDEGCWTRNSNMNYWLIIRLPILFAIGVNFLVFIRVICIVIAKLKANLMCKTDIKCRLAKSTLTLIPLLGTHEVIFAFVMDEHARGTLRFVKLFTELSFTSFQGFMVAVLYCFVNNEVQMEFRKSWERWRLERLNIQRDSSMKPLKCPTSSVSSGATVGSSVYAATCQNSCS
Test: cAMP assay of fermented GLP-1/linker/mTf constructs
Assay type: cell-based

B1: pREX0585: nL GLP-1 (7-37; A8G, K34A) (PEAPTD)2 mTf; mTf lacking N-glycosylation at sites 413 and 611 (protein)
chain: HGEGTFTSDVSSYLEGQAAKEFIAWLVAGRGPEAPTDPEAPTDVPDKTVRWCAVSEHEATKCQSFRDHMKSVIPSDGPSVACVKKASYLDCIRAIAANEADAVTLDAGLVYDAYLAPNNLKPVVAEFYGSKEDPQTFYYAVAVVKKDSGFQMNQLRGKKSCHTGLGRSAGWNIPIGLLYCDLPEPRKPLEKAVANFFSGSCAPCADGTDFPQLCQLCPGCGCSTLNQYFGYSGAFKCLKDGAGDVAFVKHSTIFENLANKADRDQYELLCLDNTRKPVDEYKDCHLAQVPSHTVVARSMGGKEDLIWELLNQAQEHFGKDKSKEFQLFSSPHGKDLLFKDSAHGFLKVPPRMDAKMYLGYEYVTAIRNLREGTCPEAPTDECKPVKWCALSHHERLKCDEWSVNSVGKIECVSAETTEDCIAKIMNGEADAMSLDGGFVYIAGKCGLVPVLAENYNKADNCEDTPEAGYFAVAVVKKSASDLTWDNLKGKKSCHTAVGRTAGWNIPMGLLYNKINHCRFDEFFSEGCAPGSKKDSSLCKLCMGSGLNLCEPNNKEGYYGYTGAFRCLVEKGDVAFVKHQTVPQNTGGKNPDPWAKNLNEKDYELLCLDGTRKPVEEYANCHLARAPNHAVVTRKDKEACVHKILRQQQHLFGSNVADCSGNFCLFRSETKDLLFRDDTVCLAKLHDRNTYEKYLGEEYVKAVGNLRKCSTSSLLEACTFRRP
modifications: GLP-1-tf fusion protein
- potency (conclusions in words) (conclusions of Example 2): greatest improvement in potency
- EC50 (running text of Example 2, read-out: EC50 / potency in cAMP assay): 3 nM
